# “And” between values parts separate entries of the source, which are not always exact repeats. Identical values can stand only once. The list shows a part of the results, in another mix than the full data. The source made the active and inactive calls. Calls come from the whole dose curve; as a rule, active = well fitted inhibition curve with a large enough effect; inconclusive = small, poorly fitted or top-dose-only effect, or effect the other way, or another doubt; inactive = no such curve, though single readings can be large or run the other way.
# Target: Lysosomal alpha-glucosidase (Homo sapiens) (UniProt P10253)
# Experiment: qHTS Assay for Inhibitors and Activators of Human alpha-Glucosidase From Spleen Homogenate;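 note: 0% = enzyme with vehicle and -100% = no enzyme basal signal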
# Details: 4-MU-alpha-glucoside fluorescence; at 79.9 µM (top of the series)
# Description: NIH Chemical Genomics Center [NCGC] NIH Molecular Libraries Probe Production Centers Network [MLPCN] MLPCN Grant: R03 MH084841-01 Assay Submitter (PI): Wei Zheng NCGC Assay Overview: Alpha-glucosidase is responsible for the hydrolysis of terminal, non-reducing 1,4-linked alpha-D-glucose residues, which releases alpha-D-glucose. It is a lysosomal hydrolase that is required for the degradation of a small percentage (1-3%) of cellular glycogen in humans. Deficiency of this enzyme results in glycogen-storage disease type II (GSDII), also referred to as Pompe disease, an autosomal recessive disorder. […]
# NCGC Assay Protocol Summary: This is a fluorogenic enzyme assay with 4-methylumbelliferyl-alpha-D-glucopyranoside as the substrate and human spleen homogenate containing alpha-glucosidase as the enzyme preparation. Upon hydrolysis of this fluorogenic substrate, the resulting product, 4-methylumbelliferone (which excites at 365 nm and emits at 440 nm) can be detected by a fluorescence plate reader. […] The AC50 values were determined from concentration-response data modeled with the standard Hill equation. […] (3) Add 2 ul of substrate (1 mM final) (4) Incubate at 37 C for 40 min (5) Add 2 ul stop solution (1M NaOH and 1M Glycine mixture, pH 10) (6) Detect the assay plate in a ViewLux plate reader (PerkinElmer) with Ex=365 nm and Em=440nm. […]
row,SMILES,"activity change, negative = inhibition"
1,CN(CCCl)CCCl,inactive: 3.53% and inactive: -0.67%
2,O=[N+]([O-])C(Cl)(Cl)Cl,inactive: 3.38%
